Assay results taken from patent publication US9340577B2, “HLA binding motifs and peptides and their uses” (priority 1992, dated 2016).

Each molecule was assayed against A*2902 (Homo sapiens, UniProt P04439, A270S/D101N/D185E/E176V/E277Q/E87Q/F33T/G231S/H175R/I121M/I218V/I322F/K168Q/L300P/L318F/M331R/P208A/P217A/Q86L/T323A/T345S/V100A/V358M) (assay: biochemical).
Assay type: binding
`CC[C@H](C)[C@H](NC(=O)[C@@H](NC(=O)[C@H](CC(C)C)NC(=O)[C@H](CC(=O)O)NC(=O)[C@@H](NC(=O)[C@@H](NC(=O)[C@H](C)N)[C@@H](C)O)[C@@H](C)O)[C@@H](C)O)C(=O)N[C@H](C(=O)N[C@@H](Cc1ccc(O)cc1)C(=O)O)C(C)C` [Peptide 1549.51] was tested, and the IC50 was 194 nM.

What follows are molecules tested against DR7 (DRB1*0701) (Homo sapiens, UniProt P01903+P01911, A100R/A102G/A103Q/D57E/D86V/E43K/F76Y/K127E/L162R/M171V/P40G/Q125H/Q99D/R33Q/R42Y/R54Q/S133A/S66F/T210M/V115G/Y107V/Y59L/Y89S) (assay: biochemical).
For `CC(C)C[C@H](NC(=O)[C@H](C)NC(=O)[C@H](CO)NC(=O)[C@H](CC(C)C)NC(=O)[C@H](Cc1ccccc1)NC(=O)[C@H](CO)NC(=O)[C@@H](N)C(C)C)C(=O)N[C@@H](CCCCN)C(=O)N[C@@H](CC(C)C)C(=O)N[C@@H](Cc1ccccc1)C(=O)N[C@@H](CC(C)C)C(=O)N[C@@H](CCCCN)C(=O)NCC(=O)N[C@H](C(=O)N1CCC[C@H]1C(=O)O)C(C)C` [Peptide 89.0053], the IC50 was 569 nM. `CC[C@H](C)[C@H](NC(=O)[C@H](CC(N)=O)NC(=O)[C@H](CO)NC(=O)[C@@H](NC(=O)[C@@H](NC(=O)[C@H](CC(C)C)NC(=O)[C@H](CC(C)C)NC(=O)[C@@H]1CCCN1C(=O)[C@@H]1CCCN1C(=O)[C@H](CS)NC(=O)[C@H](CCCCN)NC(=O)[C@H](CC(C)C)NC(=O)[C@H](CCC(N)=O)NC(=O)[C@H](CCSC)NC(=O)[C@@H](N)CC(C)C)[C@@H](C)CC)[C@@H](C)O)C(=O)O` [Peptide 89.0057] gave an IC50 of 1170 nM. `CC[C@H](C)[C@H](NC(=O)[C@@H](NC(=O)[C@H](CCSC)NC(=O)[C@H](CS)NC(=O)[C@@H](NC(=O)[C@H](CCC(=O)O)NC(=O)[C@@H]1CCCN1C(=O)[C@@H](NC(=O)[C@H](CO)NC(=O)[C@H](CC(C)C)NC(=O)[C@H](CC(C)C)NC(=O)[C@H](CC(N)=O)NC(=O)[C@@H](N)CO)[C@@H](C)CC)[C@@H](C)O)C(C)C)C(=O)N[C@@H](CCC(=O)O)C(=O)N1CCC[C@H]1C(=O)O` [Peptide 89.0067] gave an IC50 of 194 nM. In the case of `CC[C@H](C)[C@H](NC(=O)[C@H](CCC(=O)O)NC(=O)[C@H](CO)NC(=O)[C@H](CC(=O)O)NC(=O)[C@H](CC(=O)O)NC(=O)[C@H](CCSC)NC(=O)[C@@H](NC(=O)[C@H](CC(=O)O)NC(=O)[C@H](CC(N)=O)NC(=O)[C@@H](N)CC(=O)O)C(C)C)C(=O)N[C@@H](C)C(=O)N[C@@H](Cc1ccc(O)cc1)C(=O)N[C@@H](CCCCN)C(=O)N[C@@H](Cc1ccc(O)cc1)C(=O)N[C@@H](C)C(=O)O` [Peptide 90.0069], the IC50 is reported as 6410 nM. `CC[C@H](C)[C@H](NC(=O)[C@H](CO)NC(=O)[C@H](CC(N)=O)NC(=O)[C@@H](N)CCC(=O)O)C(=O)N[C@@H](CCC(N)=O)C(=O)N[C@@H](C)C(=O)N[C@@H](CC(=O)O)C(=O)N[C@H](C(=O)N[C@@H](CCC(=O)O)C(=O)N[C@@H](C)C(=O)N[C@@H](C)C(=O)N[C@@H](CCCNC(=N)N)C(=O)N[C@@H](C)C(=O)N[C@@H](CC(C)C)C(=O)N[C@@H](Cc1ccccc1)C(=O)O)[C@@H](C)O` [Peptide 90.0078] was tested, and the IC50 was 5820 nM. With `CC[C@H](C)[C@H](NC(=O)[C@H](Cc1ccc(O)cc1)NC(=O)[C@H](Cc1ccc(O)cc1)NC(=O)[C@@H](NC(=O)CN)C(C)C)C(=O)N[C@@H](CCCCN)C(=O)N[C@@H](CC(=O)O)C(=O)NCC(=O)N[C@@H](CC(=O)O)C(=O)N[C@H](C(=O)N[C@H](C(=O)N[C@@H](Cc1ccc(O)cc1)C(=O)N[C@@H](Cc1ccc(O)cc1)C(=O)N[C@H](C(=O)N[C@@H](CCC(N)=O)C(=O)O)C(C)C)[C@@H](C)O)[C@@H](C)O` [Peptide 90.0216] the IC50 was 3410 nM.

These molecules were tested against DRB1*1302 (Homo sapiens, UniProt P01903+P01911, A100E/A169T/K41T/L162R/M171V/P40S/Q125H/Q178H/Q39Y/Q99D/R42S/S66N/T262R/V115G/W38E/Y61H) (assay: biochemical).
In the case of `CC(C)C[C@H](NC(=O)[C@H](C)NC(=O)[C@H](CO)NC(=O)[C@H](CC(C)C)NC(=O)[C@H](Cc1ccccc1)NC(=O)[C@H](CO)NC(=O)[C@@H](N)C(C)C)C(=O)N[C@@H](CCCCN)C(=O)N[C@@H](CC(C)C)C(=O)N[C@@H](Cc1ccccc1)C(=O)N[C@@H](CC(C)C)C(=O)N[C@@H](CCCCN)C(=O)NCC(=O)N[C@H](C(=O)N1CCC[C@H]1C(=O)O)C(C)C` [Peptide 89.0053], the IC50 is reported as 1320 nM. With `CC[C@H](C)[C@H](NC(=O)[C@H](Cc1ccc(O)cc1)NC(=O)[C@H](Cc1ccc(O)cc1)NC(=O)[C@@H](NC(=O)CN)C(C)C)C(=O)N[C@@H](CCCCN)C(=O)N[C@@H](CC(=O)O)C(=O)NCC(=O)N[C@@H](CC(=O)O)C(=O)N[C@H](C(=O)N[C@H](C(=O)N[C@@H](Cc1ccc(O)cc1)C(=O)N[C@@H](Cc1ccc(O)cc1)C(=O)N[C@H](C(=O)N[C@@H](CCC(N)=O)C(=O)O)C(C)C)[C@@H](C)O)[C@@H](C)O` [Peptide 90.0216] the IC50 was 269 nM.

Each molecule was assayed against HLA-A*0201 (HLA-A2.1) (Homo sapiens, UniProt P04439, D140Y/D185E/D98H/E176V/E277Q/G131W/G231S/I119V/I121R/I166T/I218V/L300P/L318F/N151K/N90K/P208A/P217A/Q86G/Q94H/R138H/R169H/T345S) (assay: biochemical).
`CC(C)C[C@H](NC(=O)[C@H](CO)NC(=O)[C@H](CC(C)C)NC(=O)[C@@H](N)CO)C(=O)NCC(=O)N[C@@H](Cc1ccccc1)C(=O)N[C@@H](CC(C)C)C(=O)N[C@@H](Cc1ccccc1)C(=O)N[C@@H](CC(C)C)C(=O)N[C@H](C(=O)O)C(C)C` [Peptide 1419.52] showed an IC50 of 3.3 nM. With `CC(C)C[C@H](NC(=O)[C@H](CC(N)=O)NC(=O)[C@H](Cc1ccc(O)cc1)NC(=O)[C@H](CC(C)C)NC(=O)CNC(=O)[C@@H](NC(=O)[C@H](CC(N)=O)NC(=O)[C@@H](NC(=O)[C@@H](N)CC(C)C)[C@@H](C)O)[C@@H](C)O)C(=O)O` [Peptide 1481.17] the IC50 was 13600 nM. For `CC[C@H](C)[C@H](NC(=O)[C@H](Cc1ccccc1)NC(=O)[C@H](CC(C)C)NC(=O)[C@@H](NC(=O)[C@H](CCC(N)=O)NC(=O)[C@@H](NC(=O)[C@H](Cc1c[nH]cn1)NC(=O)[C@H](CC(C)C)NC(=O)[C@@H](N)CCC(N)=O)[C@@H](C)O)C(C)C)C(=O)O` [Peptide 9013.0103], the IC50 was 1240 nM. With `CC[C@H](C)[C@H](N)C(=O)N[C@@H](CC(C)C)C(=O)N[C@@H](CC(N)=O)C(=O)N[C@H](C(=O)N[C@H](C(=O)N[C@@H](Cc1ccc(O)cc1)C(=O)N[C@@H](CC(C)C)C(=O)N[C@@H](Cc1c[nH]c2ccccc12)C(=O)N[C@@H](Cc1c[nH]c2ccccc12)C(=O)N[C@H](C(=O)O)C(C)C)[C@@H](C)O)[C@@H](C)O` [Peptide 9013.0195] the IC50 was 1020 nM. `CC[C@H](C)[C@H](NC(=O)CNC(=O)[C@H](CC(C)C)NC(=O)[C@@H](N)[C@@H](C)O)C(=O)N[C@@H](CCSC)C(=O)N[C@H](C(=O)NCC(=O)N[C@H](C(=O)N[C@@H](CC(C)C)C(=O)N[C@H](C(=O)O)C(C)C)C(C)C)[C@@H](C)CC` [Peptide 9013.0251] gave an IC50 of 195 nM. Work on `CC(C)C[C@H](NC(=O)[C@H](CC(C)C)NC(=O)[C@@H](N)CO)C(=O)N[C@H](C(=O)N[C@@H](Cc1ccccc1)C(=O)N[C@@H](Cc1c[nH]c2ccccc12)C(=O)N[C@@H](CC(N)=O)C(=O)N1CCC[C@H]1C(=O)N1CCC[C@H]1C(=O)N[C@H](C(=O)N[C@H](C(=O)O)C(C)C)[C@@H](C)O)[C@@H](C)O` [Peptide 9013.0256] yielded an IC50 of 55 nM.

Each molecule was assayed against DRB1*1501 (Homo sapiens, UniProt P01903+P01911) (assay: biochemical).
With `CC(C)C[C@H](NC(=O)[C@H](CC(=O)O)NC(=O)[C@H](C)NC(=O)[C@H](Cc1ccccc1)NC(=O)[C@H](C)NC(=O)[C@H](Cc1ccccc1)NC(=O)[C@H](CC(=O)O)NC(=O)[C@H](Cc1ccc(O)cc1)NC(=O)[C@@H](NC(=O)[C@H](CCC(=O)O)NC(=O)[C@@H](N)CO)C(C)C)C(=O)N[C@H](C(=O)N[C@H](C(=O)N[C@H](C(=O)N[C@@H](Cc1ccc(O)cc1)C(=O)O)C(C)C)C(C)C)[C@@H](C)O` [Peptide 85.0024] the IC50 was 1150 nM. Work on `CC[C@H](C)[C@H](NC(=O)[C@H](Cc1c[nH]c2ccccc12)NC(=O)[C@H](CCC(=O)O)NC(=O)[C@@H]1CCCN1)C(=O)N[C@@H](CCC(=O)O)C(=O)N[C@@H](CCCNC(=N)N)C(=O)N[C@@H](CCC(N)=O)C(=O)N[C@H](C(=O)N[C@H](C(=O)N[C@@H](CC(C)C)C(=O)N[C@@H](CCC(N)=O)C(=O)N[C@@H](Cc1c[nH]cn1)C(=O)N[C@@H](CO)C(=O)N[C@@H](Cc1ccccc1)C(=O)N[C@@H](CC(N)=O)C(=O)O)C(C)C)[C@@H](C)O` [Peptide 89.0049] yielded an IC50 of 12100 nM. With `CC[C@H](C)[C@H](NC(=O)CNC(=O)[C@H](Cc1ccc(O)cc1)NC(=O)[C@H](C)N)C(=O)N[C@@H](CO)C(=O)N[C@@H](Cc1ccccc1)C(=O)N[C@@H](CCSC)C(=O)N[C@@H](CCC(=O)O)C(=O)N[C@@H](CC(C)C)C(=O)N[C@H](C(=O)N[C@@H](CCCNC(=N)N)C(=O)N1CCC[C@H]1C(=O)N[C@@H](Cc1ccccc1)C(=O)N[C@@H](CCCCN)C(=O)N[C@@H](CO)C(=O)O)C(C)C` [Peptide 89.0060] the IC50 was 1820 nM. Molecule `CC[C@H](C)[C@H](NC(=O)[C@H](CCC(N)=O)NC(=O)[C@@H](NC(=O)[C@@H](NC(=O)[C@@H]1CCCN1C(=O)[C@@H]1CCCN1C(=O)[C@@H](NC(=O)[C@H](CCCCN)NC(=O)[C@@H](NC(=O)[C@@H](NC(=O)[C@H](CC(N)=O)NC(=O)[C@@H](N)CC(C)C)[C@@H](C)O)C(C)C)[C@@H](C)CC)[C@@H](C)O)C(C)C)C(=O)N[C@@H](CO)C(=O)N[C@H](C(=O)NCC(=O)O)[C@@H](C)O` [Peptide 90.0028] has an IC50 of 12100 nM. `CC[C@H](C)[C@H](NC(=O)[C@H](CCC(N)=O)NC(=O)[C@@H](NC(=O)[C@@H](N)CCC(=O)O)C(C)C)C(=O)N[C@@H](C)C(=O)N[C@@H](CC(C)C)C(=O)N[C@@H](CCC(=O)O)C(=O)N[C@@H](CO)C(=O)N[C@@H](CC(C)C)C(=O)N[C@@H](CO)C(=O)N[C@H](C(=O)N[C@H](C(=O)N[C@H](C(=O)N[C@@H](Cc1ccc(O)cc1)C(=O)N[C@@H](CC(N)=O)C(=O)O)[C@@H](C)CC)[C@@H](C)O)[C@@H](C)O` [Peptide 90.0231] was tested, and the IC50 was 1150 nM. In the case of `CC[C@H](C)[C@H](NC(=O)[C@H](Cc1ccc(O)cc1)NC(=O)[C@@H](NC(=O)[C@@H](N)CCC(=O)O)[C@@H](C)CC)C(=O)N[C@H](C(=O)N[C@@H](CCC(=O)O)C(=O)N[C@@H](CCC(=O)O)C(=O)N[C@H](C(=O)N[C@H](C(=O)N[C@@H](CS)C(=O)N[C@H](C(=O)N[C@@H](CC(C)C)C(=O)N[C@H](C(=O)N[C@@H](C)C(=O)NCC(=O)O)C(C)C)[C@@H](C)O)[C@@H](C)O)[C@@H](C)O)[C@@H](C)CC` [Peptide 90.0251], the IC50 is reported as 15200 nM.
